From patent US9439918B2 (priority 2008, dated 2016)

Tested on: Salmonella, Shigella and C. jejuni
Assay type: cell-based

CC[C@H]1OC(=O)[C@H](C)[C@@H](O[C@H]2C[C@@](C)(OC)[C@@H](O)[C@H](C)O2)[C@H](C)[C@@H](O[C@@H]2O[C@H](C)C[C@H](N(C)C)[C@H]2O)[C@](C)(O)C[C@@H](C)CN(C)[C@H](C)[C@@H](O)[C@]1(C)O [AZI, azithromycin]
MIC50 ranges: 4 µg/mL (≈ 5.34 µM)

CC[C@H]1OC(=O)[C@H](C)C(=O)[C@H](C)[C@@H](O[C@@H]2O[C@H](C)C[C@H](N(C)C)[C@H]2O)[C@](C)(OC)C[C@@H](C)C(=O)[C@H](C)[C@H]2N(CCCCn3cnc(-c4cccnc4)c3)C(=O)O[C@]12C [TEL, telithromycin]
MIC50 ranges: 8 to 16 µg/mL

Values after ≈ are worked out from the molar mass of the structure shown.
